The structures appear in SMILES notation.

We go through one molecule from paper PMC3319004 (Science Translational Medicine, 2011).

Series [1] deals with NB1 xenografts with amplified, overexpressed wild-type ALK. Put plainly: In vivo tumor growth inhibition, NB1 xenografts. The settings on record: 100mg/kg/day oral gavage for 4 weeks.
The subject of the next series is ALK-dependent NSCLC. The settings on record: cited from earlier work.

As to `C[C@@H](Oc1cc(-c2cnn(C3CCNCC3)c2)cnc1N)c1c(Cl)ccc(F)c1Cl` [crizotinib], in series [1], the tumor response entry is given as “complete tumor regression”. Further, the “safety in phase I study” value with ALK-dependent NSCLC (humans) was “safety and tolerability in humans”. For the same molecule, the “tumor response in phase I study” value in the series on ALK-dependent NSCLC (patients with ALK-dependent NSCLC) is given as “tumor shrinkage or stable disease in most patients”.
